Results as given in paper PMC3308197 (2012).

Sequences of proteins named here, by UniProt entry; tags and fusion partners are left off. Residues count along the entry.
UniProt P29274, 1-317 A54L/T88A/R107A/K122A/L202A/L235A/V239A/S277A: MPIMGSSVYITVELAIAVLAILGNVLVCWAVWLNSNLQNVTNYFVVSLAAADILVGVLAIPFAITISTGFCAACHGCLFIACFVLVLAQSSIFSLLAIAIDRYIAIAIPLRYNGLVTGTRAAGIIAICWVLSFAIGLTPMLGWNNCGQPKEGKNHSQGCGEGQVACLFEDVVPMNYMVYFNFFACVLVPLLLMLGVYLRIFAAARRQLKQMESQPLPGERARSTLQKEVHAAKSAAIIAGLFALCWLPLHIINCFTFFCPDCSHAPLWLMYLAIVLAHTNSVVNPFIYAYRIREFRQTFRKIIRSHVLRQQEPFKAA

What follows are compounds tested against human adenosine A2A receptor (Homo sapiens, UniProt P29274). Conditions: ligand efficiency as defined in ref 17.

SMILES | LE (ligand efficiency)
Nc1nnc(-c2ccccc2)c(-c2ccccc2)n1 [Compound 4a, 5,6-Diphenyl-1,2,4-triazin-3-amine] | 0.50
Nc1nnc(-c2cccc(Cl)c2)c(-c2ccccc2)n1 [Compound 4b, 6-(3-Chlorophenyl)-5-phenyl-1,2,4-triazin-3-amine] | 0.50
Nc1nnc(-c2cc(Cl)cc(Cl)c2)c(-c2ccccc2)n1 [Compound 4c, 6-(3,5-Dichlorophenyl)-5-phenyl-1,2,4-triazin-3-amine] | 0.55
Cc1cc(-c2nnc(N)nc2-c2ccccc2)cc(C)c1O [Compound 4f, 4-(3-amino-5-phenyl-1,2,4-triazin-6-yl)-2,6-dimethylphenol] | 0.52
Cc1cc(-c2nnc(N)nc2-c2cccc(F)c2)cc(C)n1 [Compound 4j] | 0.49
Cc1cc(-c2nnc(N)nc2-c2ccccc2)cc(C(F)(F)F)n1 [Compound 4k, 6-[2-Methyl-6-(trifluoromethyl)pyridin-4-yl]-5-phenyl-1,2,4-triazin-3-amine] | 0.48

These compounds were tested against adenosine A2A–StaR (Homo sapiens, UniProt P29274, A54L/K122A/L202A/L235A/R107A/S277A/T88A/V239A). Conditions: Biacore T200, 25 °C.

SMILES | SPR ka (on rate) | SPR kd (off rate)
Cc1cc(-c2nnc(N)nc2-c2cc(F)cc(F)c2)cc(C)n1 [Compound 4i] | 9.44 × 10^6 | 8.84 × 10^–2
Cc1cc(-c2nnc(N)nc2-c2ccc(F)cc2)cc(C(F)(F)F)n1 [Compound 4l] | 1.55 × 10^6 | 4.09 × 10^–2
